Biological target: Ras-related protein Rab-2A (Canis lupus familiaris) (UniProt P61105)
Test: potency of blocking fluorescent GTP on Rab2A – biochemical, GST-Rab2 beads, Bodipy-FL-GTP, flow cytometry, multiplex, dose response (AID 1337)
Conditions: Bead-bound GST-Rab2 wt, Bodipy-FL-GTP binding

- EC50: 171 nM
Structure (SMILES): CC1(C)Cc2c(sc(NC(=S)NC(=O)c3ccccc3)c2C(=O)O)CO1

— PubChem BioAssay AID1337 (NMMLSC, 2008)
